Test [1] addresses T1, Cellular biotinylated Yes-associated protein, His6-YAP(2-268)-AviTag (UniProt P46937-2 2-268, biotin on the AviTag (BirA, in the cells)).
T1 construct: Yes-associated protein (YAP), residues 2-268; Captured from the lysate on a neutravidin-coated CM5 chip by the biotinylated AviTag; also called cellular biotinylated YAP(2-268); source: E. coli BL21 Star (DE3) pRARE2, co-expressed with BirA-FLAG and D-biotin, in cleared lysate (desalted, not purified); not shown: His6, N-terminal, kept; AviTag, C-terminal, kept
As to the kind of experiment: SPR; cellular biotinylated YAP(2-268) captured from soluble cell lysate (200 RU) on neutravidin-coated CM5 chip; TEAD1 apo-form injected, 10 concentrations, 2-fold series from 3 µM; 20 mM Tris-HCl pH 7.4, 150 mM NaCl, 5 mM MgCl2, 0.1 mM EGTA, 0.05% CHAPS; 15 °C; 1:1 Langmuir fit. The settings on record: one partner purified.

By UniProt entry, the sequences of proteins in these tests, tags left out. Residues count along the entry.
UniProt P46937, 2-268: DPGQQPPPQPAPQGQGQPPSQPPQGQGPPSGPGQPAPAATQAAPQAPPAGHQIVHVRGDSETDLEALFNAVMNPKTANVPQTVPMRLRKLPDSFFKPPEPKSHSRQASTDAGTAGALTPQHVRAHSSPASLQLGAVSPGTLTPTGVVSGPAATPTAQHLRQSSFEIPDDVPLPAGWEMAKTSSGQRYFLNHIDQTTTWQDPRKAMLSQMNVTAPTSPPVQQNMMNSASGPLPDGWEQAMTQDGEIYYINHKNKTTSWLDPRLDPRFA

The target in test [2] is T1, Cellular biotinylated Yes-associated …. As to the kind of experiment: SPR; as a2, but TEAD1 incubated for 18 h at 30 °C with saturating 30 µM TED-347 (small molecule, lipidation pocket) before injection over YAP(2-268) captured from lysate; 15 °C. The settings on record: one partner purified.

B1: Transcriptional enhancer factor TEF (TEAD1), TEAD1(209-426) (domain or fragment, UniProt P28347 209-426, looked up)
chain: RSIGTTKLRLVEFSAFLEQQRDPDSYNKHLFVHIGHANHSYSDPLLESVDIRQIYDKFPEKKGGLKELFGKGPQNAFFLVKFWADLNCNIQDDAGAFYGVTSQYESSENMTVTCSTKVCSFGKQVVEKVETEYARFENGRFVYRINRSPMCEYMINFIHKLKHLPEKYMMNSVLENFTILLVVTNRDTQETLLCMACVFEVSNSEHGAQHHIYRLVKD
notes: TEAD1, residues 209-426; also called TEAD1(209-436); TEAD1 apo-form
In test [1], B1 showed a Kd of 45 nM, a koff of 0.08 s⁻¹ and a kon of 1.8e+06 M⁻¹ s⁻¹. Besides, in test [2], binding was characterised by a dissociation constant (Kd) of 300 nM, the koff is 0.34 s⁻¹ and the kon stood at 1.2e+06 M⁻¹ s⁻¹.

Source of the values: PMC10605449 (Biosensors, 2023).
